The values below come from patent US9630961B2, “Arginine methyltransferase inhibitors and uses thereof” (Epizyme, Inc., priority 2013, dated 2017).

By UniProt entry, the sequences of proteins in these tests, tags left out. Chains listed by the source or under a name are the forms on record and can include a tag or linker. Residues count along the entry.
UniProt Q96LA8, 2-375 with tags or gaps: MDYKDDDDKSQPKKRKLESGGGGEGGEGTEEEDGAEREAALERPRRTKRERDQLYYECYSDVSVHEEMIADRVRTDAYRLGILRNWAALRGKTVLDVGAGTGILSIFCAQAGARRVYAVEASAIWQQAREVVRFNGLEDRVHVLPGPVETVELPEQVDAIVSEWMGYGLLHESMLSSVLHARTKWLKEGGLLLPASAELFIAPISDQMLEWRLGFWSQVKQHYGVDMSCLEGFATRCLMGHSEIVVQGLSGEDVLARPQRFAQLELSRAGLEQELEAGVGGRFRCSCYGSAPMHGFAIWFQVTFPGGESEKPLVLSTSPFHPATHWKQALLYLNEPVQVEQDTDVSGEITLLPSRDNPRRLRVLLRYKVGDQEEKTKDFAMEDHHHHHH

The target of this assay is PRMT6 (Homo sapiens, UniProt Q96LA8). The assay is described as follows: PRMT6 Biochemical Assay (3H-SAM Flashplate, peptide substrate). The following applies: read-out: Biochemical IC50 PRMT6; 30 min preincubation, room temperature. The source says:
S-adenosylmethionine (SAM), S-adenosylhomocysteine (SAH), bicine, Tween20, dimethylsulfoxide (DMSO), bovine skin gelatin (BSG), sodium butyrate and Tris(2-carboxyethyl)phosphine hydrochloride solution (TCEP) were purchased from Sigma-Aldrich at the highest level of purity possible. ^3H-SAM was purchase from American Radiolabeled Chemicals with a specific activity of 80 Ci/mmol. 384-well streptavidin Flashplates were purchased from PerkinElmer.
Peptide representative of human histone H4 residues 36-50 was synthesized with an N-terminal linker-affinity tag motif and a C-terminal amide cap by 21st Century Biochemicals. The peptide was purified by high-performance liquid chromatography (HPLC) to greater than 95% purity and confirmed by liquid chromatography mass spectrometry (LC-MS). The sequence was Biot-Ahx-RLARRGGVKRISGLI-amide and contained a monomethylated lysine at position 44 (SEQ ID NO.:5).
Full-length human PRMT6 (NM_018137.2) transcript clone was amplified from an HEK 293 cDNA library, incorporating a flanking 5′ sequence encoding a FLAG tag (MDYKDDDDK) (SEQ ID NO.:6) fused directly to Ser 2 of PRMT6 and a 3′ sequence encoding a hexa His sequence (HHHHHH) fused directly to Asp 375. The amplified gene was subcloned into pFastBacMam (Viva Biotech).
Recombinant baculovirus were generated according to Bac-to-Bac kit instructions (Life Technologies). […]

A value given as a limit tells only on which side of the number the result lay.

In general, IC50 refers to the concentration at which inhibition is half-maximal. For `CNCCN(C)Cc1c[nH]nc1-c1csc2ccccc12`, the 50% inhibitory concentration (IC50) is under 100 nM.
Next, `CNCCN(C)Cc1c[nH]nc1-c1cncnc1`: 1010 to 3000 nM.
